Laboratory results published in patent US20250361280A1 (Protagonist Therapeutics, Inc., priority 2022, published 2025).

The molecules below were run against T1, ferroportin (Homo sapiens, UniProt Q9NP59) (assay: FPN internalization assay (FPN activity assay), loss of ferroportin-GFP fluorescence). Conditions: not given.
T1 sequence (Q9NP59 1-571): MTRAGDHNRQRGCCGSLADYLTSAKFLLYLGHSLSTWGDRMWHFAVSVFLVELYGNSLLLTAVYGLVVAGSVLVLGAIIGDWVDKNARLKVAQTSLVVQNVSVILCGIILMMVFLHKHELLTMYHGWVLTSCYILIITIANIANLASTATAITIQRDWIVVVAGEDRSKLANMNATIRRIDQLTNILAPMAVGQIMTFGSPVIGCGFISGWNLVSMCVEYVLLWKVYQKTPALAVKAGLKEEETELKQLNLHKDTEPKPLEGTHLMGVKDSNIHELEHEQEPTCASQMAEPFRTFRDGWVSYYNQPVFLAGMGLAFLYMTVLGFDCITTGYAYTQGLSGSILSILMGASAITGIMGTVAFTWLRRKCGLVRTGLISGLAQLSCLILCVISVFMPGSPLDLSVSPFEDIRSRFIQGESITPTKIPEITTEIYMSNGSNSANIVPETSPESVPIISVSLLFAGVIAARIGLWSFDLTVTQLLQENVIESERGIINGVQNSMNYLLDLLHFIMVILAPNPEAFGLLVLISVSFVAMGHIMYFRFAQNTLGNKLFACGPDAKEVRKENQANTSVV
Assay type: cell-based

`CC(C)CC(=O)N[C@@H](CCC(=O)O)C(=O)N[C@H](C(=O)N[C@@H](Cc1c[nH]cn1)C(=O)N[C@H](C(=O)NCCCCCCCCCCCc1ccccc1)C(c1ccccc1)c1ccccc1)[C@@H](C)O` [compound 49] and `CC(C)CC(=O)N[C@@H](CCC(=O)O)C(=O)N[C@H](C(=O)N[C@@H](Cc1c[nH]cn1)C(=O)N[C@H](C(=O)N1CCC[C@H]1C(=O)NCCCCCCCCCCCc1ccccc1)C(c1ccccc1)c1ccccc1)[C@@H](C)O` [compound 50] cannot be ordered by IC50: > 500 nM for the first, > 500 nM for the second.

First: CCCCCCc1ccc(CCCCNC(=O)CN(C)C(=O)[C@@H]2CCCN2C(=O)[C@@H](NC(=O)[C@H](Cc2c[nH]cn2)NC(=O)[C@@H](NC(=O)[C@H](CCC(=O)O)NC(=O)CC(C)C)[C@@H](C)O)C(c2ccccc2)c2ccccc2)cc1 [compound 51]
Second: CC(C)CC(=O)N[C@@H](CCC(=O)O)C(=O)N[C@H](C(=O)N[C@@H](Cc1c[nH]cn1)C(=O)N[C@H](C(=O)N1CCC[C@H]1C(=O)N[C@H](CCCCN)C(=O)N(Cc1ccccc1)C(CCc1ccccc1)C(=O)O)C(c1ccccc1)c1ccccc1)[C@@H](C)O (stereo partly shown) [compound 146]
The IC50 of the first is higher: > 500 nM for the first, 100 to 500 nM for the second.

`O=C(CNCc1nc(C(=O)NCc2ncccc2F)co1)N[C@@H](Cc1c[nH]cn1)C(=O)N[C@H](C(=O)N1CCC[C@H]1C(=O)NCCCCc1ccccc1)C(c1ccccc1)c1ccccc1` [compound 134] and `CC(C)CC(=O)N[C@@H](CCC(=O)O)C(=O)N[C@H](C(=O)N[C@@H](Cc1c[nH]cn1)C(=O)N[C@H](C(=O)N1CCC[C@H]1C(=O)N[C@@H](CCCCN)C(=O)N(CC1CCCCC1)C(C(=O)N[C@@H](CCCCN)C(=O)O)c1ccccc1)C(c1ccccc1)c1ccccc1)[C@@H](C)O` (stereo partly shown) [compound 181] cannot be ordered by IC50: > 500 nM for the first, > 500 nM for the second.

For `CCCCCCCCCCCCCCCC(=O)NCCOCCOCCOCCOCCOCCOCCOCCOCCOCCOCCOCCOCCC(=O)NCCCCCC(=O)NCCCC[C@H](NC(=O)[C@@H]1CCCN1C(=O)[C@@H](NC(=O)[C@H](Cc1c[nH]cn1)NC(=O)[C@@H](NC(=O)[C@H](CCC(=O)O)NC(=O)CC(C)C)[C@@H](C)O)C(c1ccccc1)c1ccccc1)C(=O)N(CC1CCCCC1)C(C(=O)N[C@@H](CCCCN)C(=O)O)c1ccccc1` (stereo partly shown) [compound 180], the IC50 was 1 to 30 nM.

Same assay, conditions: Table 1C; HEK293 cells stably expressing ferroportin-GFP, compound at least 18 hours; read-out: IC50: FPN

First: CCCCCCCCCCCCCCCC(=O)NCCCCCC(=O)NCCCC[C@H](NC(=O)[C@@H]1CCCN1C(=O)[C@@H](NC(=O)[C@H](Cc1c[nH]cn1)NC(=O)[C@H]([C@@H](C)O)N(C)C(=O)[C@H](CCC(=O)OC)NC(=O)CC(C)C)C(c1ccccc1)c1ccccc1)C(=O)NCCCCCc1ccccc1 [compound 3]
Second: CCCCCCCCCCCCCCCC(=O)NCCCCCC(=O)NCCCC[C@H](NC(=O)[C@@H]1CCCN1C(=O)[C@@H](NC(=O)[C@H](Cc1c[nH]cn1)NC(=O)[C@@H](NC(=O)[C@H](CCC(=O)OC)NC(=O)CC(C)C)[C@@H](C)O)C(c1ccccc1)c1ccccc1)C(=O)NCCCCCc1ccccc1 [compound 19]
The IC50 of the first is higher: > 500 nM for the first, 30 to 100 nM for the second. The second is the more potent here.

`CC(C)CC(=O)N[C@@H](CCC(=O)O)C(=O)N[C@H](C(=O)N[C@@H](Cc1c[nH]cn1)C(=O)N[C@H](C(=O)O)C(c1ccccc1)c1ccccc1)[C@@H](C)O` [compound 8] and `CC(C)CC(=O)N[C@@H](CCC(=O)O)C(=O)N[C@H](C(=O)N[C@@H](Cc1c[nH]cn1)C(=O)N[C@H](C(=O)N1CCC[C@H]1C(=O)O)C(c1ccccc1)c1ccccc1)[C@@H](C)O` [compound 9] cannot be ordered by IC50: > 500 nM for the first, > 500 nM for the second.

`CC(C)CC(=O)N[C@@H](CCC(=O)O)C(=O)N[C@H](C(=O)N[C@@H](Cc1c[nH]cn1)C(=O)N[C@H](C(=O)N1CCC[C@H]1C(=O)N(C)CC(=O)O)C(c1ccccc1)c1ccccc1)[C@@H](C)O` [compound 10] and `COC(=O)CC[C@H](NC(=O)CC(C)C)C(=O)N(C)[C@H](C(=O)N[C@@H](Cc1c[nH]cn1)C(=O)N[C@H](C(=O)N1CCC[C@H]1C(=O)N(C)[C@@H](CCCCNC(=O)C[N+](C)(C)CCNC(=O)CCCCCCCCCCCCCCCCC(=O)O)C(=O)N[C@H](C(=O)N[C@H](CCCCN)C(N)=O)C(c1ccccc1)c1ccccc1)C(c1ccccc1)c1ccccc1)[C@@H](C)O` [compound 41] cannot be ordered by IC50: > 500 nM for the first, > 500 nM for the second.

`CCCCCCCCCCCCCCCC(=O)NCCCCCC(=O)NCCCC[C@H](NC(=O)[C@@H]1C[C@H]2CN1C(=O)[C@H](C(c1ccccc1)c1ccccc1)NC(=O)[C@H](Cc1c[nH]cn1)NC(=O)[C@H]([C@@H](C)O)NC(=O)[C@@H](NC(=O)CC(C)C)CCCC(=O)N2)C(=O)NCCCCCc1ccccc1` [compound 13] and `CCCCCCCCCCCCCCCC(=O)NCC[N+](C)(C)CC(=O)NCCCC[C@H](NC(=O)[C@@H]1CSSC[C@H](NC(=O)[C@H](CCC(=O)OC)NC(=O)CC(C)C)C(=O)N[C@@H](Cc2cnc[nH]2)C(=O)N[C@@H](C(c2ccccc2)c2ccccc2)C(=O)N1)C(=O)NCCCCCc1ccccc1` [compound 14] cannot be ordered by IC50: > 500 nM for the first, > 500 nM for the second.

First: CCCCCCCCCCCCCCCC(=O)NCCCCCC(=O)NCCCC[C@H](NC(=O)[C@H]1CSSC[C@H](NC(=O)[C@H](CCC(=O)O)NC(=O)CC(C)C)C(=O)N[C@@H](Cc2c[nH]cn2)C(=O)N[C@@H](C(c2ccccc2)c2ccccc2)C(=O)N1)C(=O)N[C@H](C(N)=O)C(c1ccccc1)c1ccccc1 [compound 32]
Second: COC(=O)CC[C@H](NC(=O)CC(C)C)C(=O)N[C@H](C(=O)N[C@@H](Cc1c[nH]cn1)C(=O)N[C@H](C(=O)N1CCC[C@H]1C(=O)N1CCC[C@@H]1C(=O)NCC(=O)N(C)[C@@H](CCCCNC(=O)COCCOCCNC(=O)COCCOCCNC(=O)[C@H](CN)NC(=O)CCCCCCCCCCCCCCCCC(=O)O)C(=O)N[C@H](CC(=O)N[C@H](CCCCN)C(N)=O)Cc1ccccc1)C(c1ccccc1)c1ccccc1)[C@@H](C)O [compound 47]
The IC50 of the first is lower: 30 to 100 nM for the first, > 500 nM for the second. The first is the more potent here.

Same assay, conditions: Table 1D; HEK293 cells stably expressing ferroportin-GFP, compound at least 18 hours; read-out: IC50: FPN

`NCCCC[C@@H](NC(=O)[C@@H]1CCCN1C(=O)[C@@H](NC(=O)[C@H](Cc1c[nH]cn1)NC(=O)CN)C(c1ccccc1)c1ccccc1)C(=O)NCCCCc1ccccc1` [compound 131] and `NCC(=O)N[C@@H](Cc1c[nH]cn1)C(=O)N[C@H](C(=O)N1CCC[C@H]1C(=O)NCCCCc1ccccc1)C(c1ccccc1)c1ccccc1` [compound 133] cannot be ordered by IC50: > 500 nM for the first, > 500 nM for the second.

First: NCCCC[C@@H](NC(=O)[C@@H]1CCCN1C(=O)[C@@H](NC(=O)[C@H](Cc1c[nH]cn1)NC(=O)CNCc1nc(C(=O)NCc2ncccc2F)co1)C(c1ccccc1)c1ccccc1)C(=O)NCCCCc1ccccc1 [compound 132]
Second: CC(C)CC(=O)NCCCC[C@H](NC(=O)[C@@H]1CCCN1C(=O)[C@@H](NC(=O)[C@H](Cc1c[nH]cn1)NC(=O)[C@@H](NC(=O)[C@H](CCC(=O)O)NC(=O)CC(C)C)[C@@H](C)O)C(c1ccccc1)c1ccccc1)C(=O)NCCCCc1ccccc1 [compound 204]
The IC50 of the first is higher: > 500 nM for the first, 1 to 30 nM for the second. The second is the more potent here.

Compared with `CC(C)CC(=O)N[C@@H](CCC(=O)O)C(=O)N[C@H](C(=O)N[C@@H](Cc1c[nH]cn1)C(=O)N[C@H](C(=O)N1CCC[C@H]1C(N)=O)C(c1ccccc1)c1ccccc1)[C@@H](C)O` [compound 143], `CCCCCC(=O)NCCCC[C@H](NC(=O)[C@@H]1CCCN1C(=O)[C@@H](NC(=O)[C@H](Cc1c[nH]cn1)NC(=O)[C@@H](NC(=O)[C@H](CCC(=O)O)NC(=O)CC(C)C)[C@@H](C)O)C(c1ccccc1)c1ccccc1)C(=O)NCCCCc1ccccc1` [compound 205] is lower in IC50: > 500 nM for the first, 30 to 100 nM for the second. The second is the more potent here.

`CCCCCCCCCCCCCCCC(=O)NCCOCCOCCOCCOCCOCCOCCOCCOCCOCCOCCOCCOCCC(=O)NCCCC[C@H](NC(=O)[C@@H]1CCCN1C(=O)[C@@H](NC(=O)[C@H](Cc1c[nH]cn1)NC(=O)[C@@H](NC(=O)[C@H](CCC(=O)O)NC(=O)CC(C)C)[C@@H](C)O)C(c1ccccc1)c1ccccc1)C(=O)NCCCCc1ccccc1` [compound 209] and `CCCCCCCCCCCCCCCC(=O)NCC[N+](C)(C)CC(=O)NCCOCCOCC(=O)NCCOCCOCC(=O)NCCCC[C@H](NC(=O)[C@@H]1CSSC[C@H](NC(=O)[C@H](CCC(=O)O)NC(=O)CC(C)C)C(=O)N[C@@H](Cc2c[nH]cn2)C(=O)N[C@@H](C(c2ccccc2)c2ccccc2)C(=O)N1)C(=O)NCC(c1ccccc1)c1ccccc1` [compound 215] fall in the same range of IC50: 1 to 30 nM for the first, 1 to 30 nM for the second.
